From patent publication US6846817B2 (Regents of the University of Minnesota, priority 1999, dated 2005)

Sequences of proteins named here, by UniProt entry; tags and fusion partners are left off. Residues count along the entry.
UniProt Q05941, 23-502: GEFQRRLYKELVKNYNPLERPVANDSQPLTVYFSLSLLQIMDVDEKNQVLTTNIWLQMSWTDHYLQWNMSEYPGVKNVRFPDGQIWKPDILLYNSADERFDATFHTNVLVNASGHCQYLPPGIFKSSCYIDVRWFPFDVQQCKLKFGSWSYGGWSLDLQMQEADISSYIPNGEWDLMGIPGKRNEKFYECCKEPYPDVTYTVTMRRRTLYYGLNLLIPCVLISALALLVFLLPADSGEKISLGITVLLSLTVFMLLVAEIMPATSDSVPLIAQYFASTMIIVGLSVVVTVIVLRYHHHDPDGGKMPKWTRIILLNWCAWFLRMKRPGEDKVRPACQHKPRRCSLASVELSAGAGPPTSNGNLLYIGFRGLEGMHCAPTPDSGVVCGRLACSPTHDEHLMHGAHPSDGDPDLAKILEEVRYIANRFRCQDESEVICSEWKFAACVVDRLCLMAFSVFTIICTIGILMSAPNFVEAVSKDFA

Molecular target: α7 nicotine receptor (Rattus norvegicus, UniProt Q05941)
Assay: biochemical
Format: binding

Question: With CN1CCCCC1C1CCc2ccccc2O1 (single isomer, unassigned) [Compound 1, erythro-2-(1-Methylpiperidin-2-yl)chroman] as the molecule, how does the Ki read?
Answer: > 10 µM

Question: Which Ki (read-out: Ki-[125I]--BT) does the source give for CN1CCCCC1C1CCc2ccccc2O1 (single isomer, unassigned) [Compound 6, threo-2-(1-Methylpiperidin-2-yl)chroman] here?
Answer: > 10 µM

Question: CN1CCCCC1C1CCc2c(O)cccc2O1 (stereo not drawn) [Compound 2, erythro-5-Hydroxy-2-(1-methylpiperidin-2-yl)chroman] was tested. Which Ki (read-out: Ki-[125I]--BT) did it give?
Answer: > 10 µM

Where two headings read alike, the source gives them in different places.
